## Binding of CDR-mutated scFvs to a peptide of the spike HR2 region

All variants were tested on one target, the spike HR2 peptide PDVDLGDISGINAS (SARS-CoV-2).

The variants keep the heavy chain, the linker and the frameworks of Ab-14 (scFv order VH, the linker GGGGSGGGGSGGGGS, VL).
VH: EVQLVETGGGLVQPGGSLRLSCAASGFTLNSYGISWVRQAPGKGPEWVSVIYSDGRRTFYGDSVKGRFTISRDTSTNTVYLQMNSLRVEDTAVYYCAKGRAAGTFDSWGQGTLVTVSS
VL: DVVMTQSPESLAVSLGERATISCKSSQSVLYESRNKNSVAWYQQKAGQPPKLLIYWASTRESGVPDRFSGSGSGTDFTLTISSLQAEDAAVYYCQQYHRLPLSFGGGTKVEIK

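In library AAYL50, one, two or three CDR residues were substituted; doubles and triples were drawn at random. AlphaSeq pools MATa yeast showing the antibodies with MATalpha yeast showing the peptide. After mating in shaken culture at 30 °C for 16 h, diploids were selected and their barcode pairs sequenced. The ratio of observed to expected reads was calibrated, replicate by replicate, on BCL2-family standards whose Kd was known from biolayer interferometry. There are three technical replicates.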

Each variant is given by its three light chain CDRs, as the data file delimits them; those of the parent are KSSQSVLYESRNKNSVA, WASTRES, QQYHRLPLS.
Affinities are written as log10 Kd with Kd in nM; a lower number is a better binder.
"ND" means that the variant was in the library but no mating with the target was seen in that replicate; the authors take this as a sign of poor binding, and no number exists.
In this assay the parent's reference entry averaged 0.65; its copy inside this library read 1.68.
Background: pairings of library AAYL50 with three empty control strains gave a value in 18% of cases (median 4.19, 5th percentile 2.99). Values in that range, when seen in few replicates, are hard to tell from nonspecific mating. The control count says in how many pairings with the empty strains this scFv gave a signal, with their mean in brackets.

CDR-L1	CDR-L2	CDR-L3	replicates, log10 nM	empty controls
KSSQSVLYESRNTNSPN	WASTRES	QQYHRLPLS	ND ND ND	0 of 9
KWSQSVLYESRIKASVA	WASTRES	QQYHRLPLS	2.89 3.14 2.61	2 of 9 (4.89)
KSSQSVPYESYNKNSVA	WASTRES	QDYHRLPLS	0.65 0.90 0.77	1 of 9 (4.60)
KSSQSVLYESRNSNSVA	WASTRES	KQYHRQPLS	ND ND ND	0 of 9
KSSQSVLYESRNMNSVA	WASTWEN	QQYHRLPLS	4.36 ND ND	2 of 9 (4.84)
KSSQDVLYESRNKNSVA	WAATCES	QQYHRLPLS	ND ND ND	0 of 9
QSSQSVLYEIRNKNSVA	WDSTRES	QQYHRLPLS	ND ND ND	0 of 9
KSSQSVLYEIRNKNSRA	WASTRGS	QQYHRLPLS	ND ND ND	3 of 9 (3.90)
KSSQSRLYESRNKNSGA	WASTRES	QQYHRLSLS	3.71 ND ND	4 of 9 (4.19)
KSSQSVTYESRWKNSVA	WASTRES	QKYHRLPLS	0.95 1.05 0.94	5 of 9 (4.76)
KSSQSVLYESLNFNSVA	WASTWES	QQYHRLPLS	ND ND ND	0 of 9
KSSQSVQYESRNKNSVA	WASTRES	VQYHRLPLS	1.58 1.56 1.63	1 of 9 (5.00)
FSSQSVLYEWRNKNSVA	WASTRES	QQYHRLPLS	2.51 2.56 2.51	4 of 9 (3.90)
KSSQSVLYESRNKNSVK	WASTRES	QQYHRLDWS	ND 3.71 ND	5 of 9 (4.28)
KSSQSVLYESRNKNSMA	WASTRES	QQFHLLPLS	0.79 0.78 0.85	0 of 9
KSSQSVLYESRNKNSWA	WASTWES	QQYGRLPLS	3.86 ND ND	3 of 9 (3.97)
KSSQSVLYESRNKNSVA	WEPTRES	QQYHRLPLQ	4.74 ND 5.32	5 of 9 (4.48)
KSSQSVAYESRNKNSGA	WASTRCS	QQYHRLPLS	0.84 0.97 0.94	6 of 9 (4.72)
LSSQSVLYESRNKNSVV	WASTRES	QLYHRLPLS	ND ND ND	0 of 9
KSSQSVLYESRNKNSVA	WFSTRCS	QQYHRLLLS	4.07 ND ND	1 of 9 (4.59)
KSSQAVLYESRNKNSVA	WASTRES	QVYARLPLS	ND ND ND	0 of 9
KSSFWVLYESRNKNSVA	WASTRES	QLYHRLPLS	ND ND ND	2 of 9 (4.26)
KSSQSVLYESRNANSVA	WASTRES	YQYHRIPLS	ND 3.96 4.87	6 of 9 (4.61)
KSSQSVLYESRNLNSVA	WASTREG	QQYHMLPLS	0.85 1.58 1.11	1 of 9 (4.09)
KSSYMVLYESRCKNSVA	WASTRES	QQYHRLPLS	ND 2.39 ND	1 of 9 (2.90)
KSSQSVLYESRNKNSVA	WASADES	QQYNRLPLS	ND 4.02 ND	2 of 9 (3.66)
RSSQSVLYESRNFNSVA	WASTRES	QHYHRLPLS	0.80 1.02 0.75	0 of 9
KSSQSPLYESRVKNSVA	WASTRES	QQYHRLPLS	1.43 1.63 1.63	5 of 9 (4.57)
HSSQSVLIESRNKNSVA	WASTQES	QQYHRLPLS	ND 2.77 1.78	0 of 9
KNSQSVLYESRNKNSVA	WASTRES	QQRHRLPLS	ND 4.91 ND	0 of 9

Values reported by Engelhart et al. 2022, doi:10.1038/s41597-022-01779-4 (FLAb copy).